Source: patent US11319295B2, “Substituted phenyloxetane and phenyltetrahydrofuran compounds as indoleamine 2,3-dioxygenase (IDO) inhibitors” (MERCK SHARP & DOHME CORP., priority 2017, dated 2022)

Sequences of proteins named here, by UniProt entry; tags and fusion partners are left off.
UniProt P14902, whole entry: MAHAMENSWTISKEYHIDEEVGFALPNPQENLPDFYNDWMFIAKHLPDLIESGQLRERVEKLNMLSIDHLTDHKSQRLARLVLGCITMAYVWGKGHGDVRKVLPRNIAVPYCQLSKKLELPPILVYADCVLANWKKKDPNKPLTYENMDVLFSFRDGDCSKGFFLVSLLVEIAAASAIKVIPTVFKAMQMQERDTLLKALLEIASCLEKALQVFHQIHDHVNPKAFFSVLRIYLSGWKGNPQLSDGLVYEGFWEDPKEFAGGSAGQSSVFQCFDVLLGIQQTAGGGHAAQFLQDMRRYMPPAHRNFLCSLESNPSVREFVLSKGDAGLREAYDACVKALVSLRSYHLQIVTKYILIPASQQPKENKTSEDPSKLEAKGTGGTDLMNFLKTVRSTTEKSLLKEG

Target: IDO1 (Homo sapiens, UniProt P14902)
Assay: IDO1 Cellular Assay in Hela Cells Stimulated with IFNγ
Conditions: Hela IC50 (nM), Hela cells stimulated with IFNγ 100 ng/mL, 300 uM L-tryptophan, about 48 hours; form screened: Neutral

Work on CCCC(=O)NC1(c2ccc(NC(=O)c3cccc(Cl)c3)cc2)CCOC1 (stereo not shown) [Example 12, N-(4-(3-Butyramidotetrahydrofuran-3-yl)phenyl)-3-chlorobenzamide] yielded an IC50 of 1020 nM.
